Measurements published in patent US20090099157A1, “TETRAHYDRO-PYRAZOLO-PYRIDINE THIOETHER MODULATORS OF CATHEPSIN S” (priority 2007, published 2009).

Amino acid sequences for entries named in this document (tags omitted). Residues count along the entry.
UniProt P25774, 115-331: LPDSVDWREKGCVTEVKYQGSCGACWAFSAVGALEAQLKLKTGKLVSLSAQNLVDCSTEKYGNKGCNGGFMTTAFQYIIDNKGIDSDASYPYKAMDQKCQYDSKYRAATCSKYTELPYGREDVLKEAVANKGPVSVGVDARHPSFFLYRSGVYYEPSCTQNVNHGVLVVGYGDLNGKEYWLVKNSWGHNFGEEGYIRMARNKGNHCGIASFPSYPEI

Target: Recombinant human cathepsin S (CatS) (Homo sapiens, UniProt P25774)
Experiment: biochemical

Structure (SMILES) | IC50 [nM]
CC(=O)NC1CCN(CC(O)Cn2nc(-c3ccc(C(F)(F)F)c(SCCN4CCC(F)CC4)c3)c3c2CCN(S(C)(=O)=O)C3)C1 (stereo not shown) [Example 619, N-[1-(3-{3-[3-{[2-(4-Fluoropiperidin-1-yl)ethyl]sulfanyl}-4-(trifluoromethyl)phenyl]-5-(methylsulfonyl)-4,5,6,7-tetrahydro-1H-pyrazolo[4,3-c]pyridin-1-yl}-2-hydroxypropyl)pyrrolidin-3-yl]acetamide] | 250
O=C(CSc1cc(-c2nn(CC(O)CN3CCC(c4ccccn4)CC3)c3c2CNCC3)ccc1C(F)(F)F)N1CCOCC1 (stereo not shown) [Example 268, 1-(3-{3-[(2-Morpholin-4-yl-2-oxoethyl)sulfanyl]-4-(trifluoromethyl)phenyl}-4,5,6,7-tetrahydro-1H-pyrazolo[4,3-c]pyridin-1-yl)-3-(4-pyridin-2-ylpiperidin-1-yl)propan-2-ol] | 110
CC1CCN(CC(O)Cn2nc(-c3ccc(C(F)(F)F)c(SCCNS(C)(=O)=O)c3)c3c2CCN(S(C)(=O)=O)C3)CC1 (stereo not shown) [Example 430, N-(2-{[5-{1-[2-Hydroxy-3-(4-methylpiperidin-1-yl)propyl]-5-(methylsulfonyl)-4,5,6,7-tetrahydro-1H-pyrazolo[4,3-c]pyridin-3-yl}-2-(trifluoromethyl)phenyl]sulfanyl}ethyl)methanesulfonamide] | 230
CS(=O)(=O)N1CCc2c(c(-c3ccc(C(F)(F)F)c(SCCN4CCCCC4)c3)nn2CC(O)CN2CCN(c3ccccc3Cl)CC2)C1 (stereo not shown) [Example 788, 1-[4-(2-Chlorophenyl)piperazin-1-yl]-3-[5-(methylsulfonyl)-3-{3-[(2-piperidin-1-ylethyl)sulfanyl]-4-(trifluoromethyl)phenyl}-4,5,6,7-tetrahydro-1H-pyrazolo[4,3-c]pyridin-1-yl]propan-2-ol] | 20
CS(=O)(=O)N1CCc2c(c(-c3ccc(C(F)(F)F)c(SCCN4CCCC(O)C4)c3)nn2CC(O)CN2CCC(Oc3ncccn3)CC2)C1 (stereo not shown) [Example 191, 1-[2-({5-[1-{2-Hydroxy-3-[4-(pyrimidin-2-yloxy)piperidin-1-yl]propyl}-5-(methylsulfonyl)-4,5,6,7-tetrahydro-1H-pyrazolo[4,3-c]pyridin-3-yl]-2-(trifluoromethyl)phenyl}sulfanyl)ethyl]piperidin-3-ol] | 60
CC(C)(C)OC(=O)NC1CCN(CCCn2nc(-c3ccc(C(F)(F)F)c(SCC(=O)N4CCOCC4)c3)c3c2CCN(S(C)(=O)=O)C3)CC1 [Example 113, [1-(3-{5-Methanesulfonyl-3-[3-(2-morpholin-4-yl-2-oxo-ethylsulfanyl)-4-trifluoromethyl-phenyl]-4,5,6,7-tetrahydro-pyrazolo[4,3-c]pyridin-1-yl}-propyl)-piperidin-4-yl]-carbamic acid tert-butyl ester] | 60
CS(=O)(=O)N1CCc2c(c(-c3ccc(C(F)(F)F)c(SCCN4CCCCC4)c3)nn2CC(O)CN2CCOCC2)C1 (stereo not shown) [Example 160, 1-[5-(Methylsulfonyl)-3-{3-[(2-piperidin-1-ylethyl)sulfanyl]-4-(trifluoromethyl)phenyl}-4,5,6,7-tetrahydro-1H-pyrazolo[4,3-c]pyridin-1-yl]-3-morpholin-4-ylpropan-2-ol] | 440
CS(=O)(=O)N1CCc2c(c(-c3ccc(C(F)(F)F)c(SCCNC(=O)c4ccccc4)c3)nn2CC(O)CN2CCC(N3CCCC3=O)CC2)C1 (stereo not shown) [Example 114, N-{2-[5-(1-{2-Hydroxy-3-[4-(2-oxo-pyrrolidin-1-yl)-piperidin-1-yl]-propyl}-5-methanesulfonyl-4,5,6,7-tetrahydro-1H-pyrazolo[4,3-c]pyridin-3-yl)-2-trifluoromethyl-phenylsulfanyl]-ethyl}-benzamide] | 380
O=C(CSc1cc(-c2nn(CC(O)CN3CCN(c4ccc(F)cc4)CC3)c3c2CNCC3)ccc1C(F)(F)F)N1CCCC1 (stereo not shown) [Example 397, 1-[4-(4-Fluorophenyl)piperazin-1-yl]-3-(3-{3-[(2-oxo-2-pyrrolidin-1-ylethyl)sulfanyl]-4-(trifluoromethyl)phenyl}-4,5,6,7-tetrahydro-1H-pyrazolo[4,3-c]pyridin-1-yl)propan-2-ol] | 540
OC(CN1CCN(c2cccc(C(F)(F)F)c2)CC1)Cn1nc(-c2ccc(C(F)(F)F)c(SCCN3CCCCC3)c2)c2c1CCNC2 (stereo not shown) [Example 634, 1-(3-{3-[(2-Piperidin-1-ylethyl)sulfanyl]-4-(trifluoromethyl)phenyl}-4,5,6,7-tetrahydro-1H-pyrazolo[4,3-c]pyridin-1-yl)-3-{4-[3-(trifluoromethyl)phenyl]piperazin-1-yl}propan-2-ol] | 510
O=C(CSc1cc(-c2nn(CC(O)CN3CCC(c4ccccn4)CC3)c3c2CN(C(=O)CO)CC3)ccc1C(F)(F)F)N1CCOCC1 (stereo not shown) [Example 274, 1-[5-(Hydroxyacetyl)-3-{3-[(2-morpholin-4-yl-2-oxoethyl)sulfanyl]-4-(trifluoromethyl)phenyl}-4,5,6,7-tetrahydro-1H-pyrazolo[4,3-c]pyridin-1-yl]-3-(4-pyridin-2-ylpiperidin-1-yl)propan-2-ol] | 10
CS(=O)(=O)N1CCc2c(c(-c3ccc(C(F)(F)F)c(SCCN4CCCC(F)C4)c3)nn2C[C@@H](O)CN2CC=CCC2)C1 (stereo partly drawn) [Example 387, (2S)-1-(3,6-Dihydropyridin-1(2H)-yl)-3-{3-[3-{[2-(3-fluoropiperidin-1-yl)ethyl]sulfanyl}-4-(trifluoromethyl)phenyl]-5-(methylsulfonyl)-4,5,6,7-tetrahydro-1H-pyrazolo[4,3-c]pyridin-1-yl}propan-2-ol] | 370
CC(C)N(C)CCSc1cc(-c2nn(CCCN3CCCCC3)c3c2CN(S(C)(=O)=O)CC3)ccc1C(F)(F)F [Example 314, N-Methyl-N-[2-({5-[5-(methylsulfonyl)-1-(3-piperidin-1-ylpropyl)-4,5,6,7-tetrahydro-1H-pyrazolo[4,3-c]pyridin-3-yl]-2-(trifluoromethyl)phenyl}sulfanyl)ethyl]propan-2-amine] | 2900
CC(=O)N1CCN(CCCn2nc(-c3ccc(C(F)(F)F)c(SCCN4CCCCC4)c3)c3c2CCN(S(C)(=O)=O)C3)CC1 [Example 56, 1-[4-(3-{5-Methanesulfonyl-3-[3-(2-piperidin-1-yl-ethylsulfanyl)-4-trifluoromethyl-phenyl]-4,5,6,7-tetrahydro-pyrazolo[4,3-c]pyridin-1-yl}-propyl)-piperazin-1-yl]-ethanone] | 610
CS(=O)(=O)N1CCc2c(c(-c3ccc(C(F)(F)F)c(SCCN4CCC(F)(F)C4)c3)nn2CC(O)CN2CCN(c3cnccn3)CC2)C1 (stereo not shown) [Example 759, 1-{3-[3-{[2-(3,3-Difluoropyrrolidin-1-yl)ethyl]sulfanyl}-4-(trifluoromethyl)phenyl]-5-(methylsulfonyl)-4,5,6,7-tetrahydro-1H-pyrazolo[4,3-c]pyridin-1-yl}-3-(4-pyrazin-2-ylpiperazin-1-yl)propan-2-ol] | 70
CC(C)(C)OC(=O)NCC(=O)N1CCc2c(c(-c3ccc(C(F)(F)F)c(SCCN4CCC(F)CC4)c3)nn2CC(O)CN2CCCCC2)C1 (stereo not shown) [Example 746, 1,1-Dimethylethyl (2-{3-[3-{[2-(4-fluoropiperidin-1-yl)ethyl]sulfanyl}-4-(trifluoromethyl)phenyl]-1-(2-hydroxy-3-piperidin-1-ylpropyl)-1,4,6,7-tetrahydro-5H-pyrazolo[4,3-c]pyridin-5-yl}-2-oxoethyl)carbamate] | 450
CC1CCN(CCSc2cc(-c3nn(C[C@@H](O)CN4CCOC[C@@H]4C)c4c3CN(S(C)(=O)=O)CC4)ccc2C(F)(F)F)CC1 [Example 456, (2S)-1-[(3S)-3-Methylmorpholin-4-yl]-3-{3-[3-{[2-(4-methylpiperidin-1-yl)ethyl]sulfanyl}-4-(trifluoromethyl)phenyl]-5-(methylsulfonyl)-4,5,6,7-tetrahydro-1H-pyrazolo[4,3-c]pyridin-1-yl}propan-2-ol] | 410
CC(C)(C)OC(=O)N1CCCC(C(=O)NCCSc2cc(-c3nn(CC(O)CN4CCC(N5CCCC5=O)CC4)c4c3CN(S(C)(=O)=O)CC4)ccc2C(F)(F)F)C1 (stereo not shown) [Example 122, 3-{2-[5-(1-{2-Hydroxy-3-[4-(2-oxo-pyrrolidin-1-yl)-piperidin-1-yl]-propyl}-5-methanesulfonyl-4,5,6,7-tetrahydro-1H-pyrazolo[4,3-c]pyridin-3-yl)-2-trifluoromethyl-phenylsulfanyl]-ethylcarbamoyl}-piperidine-1-carboxylic acid tert-butyl ester] | 330
CN(C)c1ccc2c(n1)n(C1CCN(CC(O)Cn3nc(-c4ccc(C(F)(F)F)c(SCCN5CCC(O)CC5)c4)c4c3CCN(S(C)(=O)=O)C4)CC1)c(=O)n2C (stereo not shown) [Example 173, 5-(Dimethylamino)-3-[1-(2-hydroxy-3-{3-[3-{[2-(4-hydroxypiperidin-1-yl)ethyl]sulfanyl}-4-(trifluoromethyl)phenyl]-5-(methylsulfonyl)-4,5,6,7-tetrahydro-1H-pyrazolo[4,3-c]pyridin-1-yl}propyl)piperidin-4-yl]-1-methyl-1,3-dihydro-2H-imidazo[4,5-b]pyridin-2-one] | 20
CCN1CCc2c(c(-c3ccc(C(F)(F)F)c(SCC(=O)N4CCCC4)c3)nn2CC(O)CN2CCN(c3ccc(F)cc3)CC2)C1 (stereo not shown) [Example 556, 1-(5-Ethyl-3-{3-[(2-oxo-2-pyrrolidin-1-ylethyl)sulfanyl]-4-(trifluoromethyl)phenyl}-4,5,6,7-tetrahydro-1H-pyrazolo[4,3-c]pyridin-1-yl)-3-[4-(4-fluorophenyl)piperazin-1-yl]propan-2-ol] | 1250
CN(C)C1CCN(C[C@H](O)Cn2nc(-c3ccc(C(F)(F)F)c(SCCN4CCC(F)CC4)c3)c3c2CCN(S(C)(=O)=O)C3)CC1 [Example 607, (2S)-1-[4-(Dimethylamino)piperidin-1-yl]-3-{3-[3-{[2-(4-fluoropiperidin-1-yl)ethyl]sulfanyl}-4-(trifluoromethyl)phenyl]-5-(methylsulfonyl)-4,5,6,7-tetrahydro-1H-pyrazolo[4,3-c]pyridin-1-yl}propan-2-ol] | 590
CC(C)CNCCSc1cc(-c2nn(CCCN3CCC(N4CCCC4=O)CC3)c3c2CN(S(C)(=O)=O)CC3)ccc1C(F)(F)F [Example 592, 1-[1-(3-{3-[3-({2-[(2-Methylpropyl)amino]ethyl}sulfanyl)-4-(trifluoromethyl)phenyl]-5-(methylsulfonyl)-4,5,6,7-tetrahydro-1H-pyrazolo[4,3-c]pyridin-1-yl}propyl)piperidin-4-yl]pyrrolidin-2-one] | 190
